Source: patent US11717499B2 (priority 2011, dated 2023)
Where two headings read alike, the source gives them in different places.

Test system: LPS-triggered PTB
Conditions: for Percent mice delivered: 50 mg/kg LPS, control 89%; for Average time of delivery: among mice that delivered, control 14.3 hours; for Percent pups lost to spontaneous preterm delivery: control 43.5%
Experimental: Mice were then randomly assigned to the control group or one of five treatment groups. […] Additionally, a sixth group of four animals received i.p. injections of 0.5 ml PBS in lieu of LPS at the same time points and served as sham (Table 1).
After the injection at t=10 hours, mice were continually monitored; time of delivery of the first pup and number of pups dropped over time were recorded. […] All mice were sacrificed by carbon dioxide asphyxiation. The mice were autopsied at the end of experiments to confirm pregnancy and to determine the number of pups retained in utero. Placenta and uteri were harvested and stored.

In the case of CC(=O)N(C)C [DMA, N,N-dimethylacetamide], the “Number of mice that delivered” value (DMA 0.2 mg/kg i.p. at t=-0.5 and 10 h, 50 mg/kg LPS on E15.5, 7 mice, to t=24 h) is reported as 5, the Percent mice delivered (DMA 0.2 mg/kg) is reported as 71.43% and the “Average time of delivery” value (DMA 0.2 mg/kg) is reported as 16.1 h. The “Percent pups lost to spontaneous preterm delivery” value (from here on “Percent pups lost”) (DMA 0.2 mg/kg) was 25.5%, the Percent mice delivered (DMA 0.39 mg/kg) was 37.5% and the “Average time of delivery” value (DMA 0.39 mg/kg) was 20.1 h. The “Percent pups lost” value (DMA 0.39 mg/kg) was 10.9%, the Percent mice delivered (DMA 0.78 mg/kg) was 20% and the “Average time of delivery” value (DMA 0.78 mg/kg) was 19.4 h. For the same compound, the “Percent pups lost” value (DMA 0.78 mg/kg) was 5.5%.
